Read-outs that look alike come from different tables or passages of the source.
Legend:
[1] = biological target: T1, human D2 receptor (Homo sapiens (Human), UniProt P14416); assay: Alternative human D2 receptor binding (Cerep, side-by-side)
[2] = biological target: T1, human D2 receptor; format: binding

Protein sequences, listed by entry. Tags and fused reporters are not part of them. Chains listed by the source or under a name are the forms on record and can include a tag or linker.
UniProt P14416, other isoform, or with tags, fused parts or gaps: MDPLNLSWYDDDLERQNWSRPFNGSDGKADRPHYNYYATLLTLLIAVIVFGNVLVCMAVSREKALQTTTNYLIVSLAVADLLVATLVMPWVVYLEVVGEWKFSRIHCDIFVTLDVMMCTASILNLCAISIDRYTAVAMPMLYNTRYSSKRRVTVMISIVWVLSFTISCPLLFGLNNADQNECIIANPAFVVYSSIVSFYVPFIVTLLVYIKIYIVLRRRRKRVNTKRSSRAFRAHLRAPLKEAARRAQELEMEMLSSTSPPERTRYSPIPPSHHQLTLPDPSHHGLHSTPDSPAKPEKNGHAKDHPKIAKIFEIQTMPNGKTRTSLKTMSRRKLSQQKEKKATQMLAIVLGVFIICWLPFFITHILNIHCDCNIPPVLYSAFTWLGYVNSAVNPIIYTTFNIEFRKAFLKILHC
UniProt P14416, whole entry: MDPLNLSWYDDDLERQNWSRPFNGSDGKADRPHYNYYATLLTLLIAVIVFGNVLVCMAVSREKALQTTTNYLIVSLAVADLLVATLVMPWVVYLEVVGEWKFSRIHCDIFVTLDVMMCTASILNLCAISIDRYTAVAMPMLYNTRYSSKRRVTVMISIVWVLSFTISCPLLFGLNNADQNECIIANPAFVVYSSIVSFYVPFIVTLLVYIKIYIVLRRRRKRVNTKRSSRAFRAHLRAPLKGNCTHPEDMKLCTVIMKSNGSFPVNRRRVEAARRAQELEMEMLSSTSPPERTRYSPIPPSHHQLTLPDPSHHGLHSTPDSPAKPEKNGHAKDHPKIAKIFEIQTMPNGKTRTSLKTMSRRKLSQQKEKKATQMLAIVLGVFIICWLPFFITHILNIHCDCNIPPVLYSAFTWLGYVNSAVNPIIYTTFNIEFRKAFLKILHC

[2H]c1c([2H])c([2H])c([C@@H]2C[C@@H](N3CCN(C)C(C)(C)C3)c3cc(Cl)ccc32)c([2H])c1[2H] (single isomer, unassigned) [Compound (II)]
Ki [1]: 6.8 nM

[2H]C1([2H])CN([C@@H]2C[C@@H](c3ccccc3)c3ccc(Cl)cc32)CC(C)(C)N1C (single isomer, unassigned) [Compound (III)]
Ki [1]: 7.6 nM

[2H]c1c([2H])c([2H])c([C@@H]2C[C@@H](N3CCN(C([2H])([2H])[2H])C(C)(C)C3)c3cc(Cl)ccc32)c([2H])c1[2H] (single isomer, unassigned) [Compound (IV)]
Ki [1]: 10 nM

[2H]C([2H])([2H])N1C([2H])([2H])CN([C@@H]2C[C@@H](c3ccccc3)c3ccc(Cl)cc32)CC1(C)C (single isomer, unassigned) [Compound (V)]
Ki [1]: 4.8 nM

[2H]c1c([2H])c([2H])c([C@@H]2C[C@@H](N3CC([2H])([2H])N(C([2H])([2H])[2H])C(C)(C)C3)c3cc(Cl)ccc32)c([2H])c1[2H] (single isomer, unassigned) [Compound (VI)]
Ki [1]: 3.7 nM

[2H]c1c([2H])c([2H])c([C@@H]2C[C@@H](N3CC([2H])([2H])N(C)C(C)(C)C3)c3cc(Cl)ccc32)c([2H])c1[2H] (single isomer, unassigned) [Compound (VII)]
Ki [1]: 5.2 nM

[2H]C([2H])([2H])N1CCN([C@@H]2C[C@@H](c3ccccc3)c3ccc(Cl)cc32)CC1(C)C [Compound (I), 4-((1R,3S)-6-chloro-3-phenyl-indan-1-yl)-1-methyl-d3-2,2-dimethyl-piperazine]
D2: pKi ([2]; printed as pKi, numerically log10 of Ki in nM): 1.54±0.11
Ki ([2]; read-out: D2: Ki log mean (converted)): 34 nM
Ki ([1]; read-out: alternative human D2 receptor binding (Ki), Cerep side-by-side analysis): 7.6 nM

CN1CCN([C@@H]2C[C@@H](c3ccccc3)c3ccc(Cl)cc32)CC1(C)C [Compound (X), 4-((1R,3S)-6-Chloro-3-phenyl-indan-1-yl)-1,2,2-trimethyl-piperazine]
Ki ([1]; Cerep side-by-side analysis, read-out: alternative human D2 receptor binding (Ki)): 7 nM
